Experimental data: PubChem BioAssay AID1347071 (National Center for Advancing Translational Sciences (NCATS), 2019)
Only a part is listed here, and it is no random draw. Calls of active or inactive are those of the source. The call rests on the fitted dose curve; in most records, active means well fitted activation curve with a large enough effect; inconclusive means small, poorly fitted or top-dose-only effect; inactive means no such curve, though single readings can be large or run the other way.

Assay: qHTS for compounds that reverse cellular toxicity of Amyloid beta (A-beta) peptide in yeast: Primary Screen; further: nearly all actives have a fitted effect of over 55% in size
Settings: yeast expressing A-beta42, growth rescue, OD600, 48 h, 0% DMSO, 100% iron-clioquinol control; at 46.1 µM (top of the series)
Description: The A-beta peptide is produced by the processing of the amyloid precursor protein (APP) by two proteases, beta and gamma secretases. […] A-beta42 is regarded as the most amyloidogenic form due to its hydrophobicity; however, precisely how A-beta42 induces neurotoxicity is unclear. To understand further this biology and its potential therapeutic implications for human neurodegenerative disease, a quantitative high-throughput screen for compounds that reverse the cellular toxicity of the A-beta peptide was developed. A yeast based screen was used because it recapitulates the salient feature of protein mis-folding disorder accurately. This cell-based phenotypic screen provides a significant, unbiased advantage by letting the compounds and models inform us which proteins or pathways are most relevant. The ideal chemical candidates would therefore have activity in both our primary yeast and secondary neuronal toxicity assays, as well as in mouse models. They will be valuable tools for dissecting diverse protein homeostasis pathologies and could potentially become the focus for future pre-clinical development. For this luminescence assay, inhibition of A-beta rescues the toxic effect in the yeast cell, resulting in increase of signals and the desired phenotype of "Activator". This screen is run against the Molecular Libraries Small Molecule Repository (MLSMR) and the NCGC Sytravon Library Collection.
NIH Chemical Genomics Center [NCGC]
NIH Molecular Libraries Probe Centers Network [MLPCN]
Assay Submitter (PI): Susan Lindquist, Whitehead Institute, Massachusetts Institute of Technology
[1] Vassar R,et al (1999). Beta-secretase cleavage of Alzheimer's amyloid precursor protein by the transmembrane aspartic protease BACE. Science. 286: 735-741.
[2] Yan R, et al (1999). Membrane-anchored aspartyl protease with Alzheimer's disease beta-secretase activity. Nature. 402: 533-536.
Two and a half microliter / well of yeast growth medium were dispensed in a 1536 assay plate. Compounds were pinned using the Kalypsys robotic system followed by addition of 2.5 uL / well yeast solution. The assay plates were incubated at 30 C. After 48 hr, the absorbance signal at 600 nm was obtained using the PerkinElmer ViewLux plate reader to assess yeast growth. The data was normalized to the positive control of an equimolar mixture of ferric chloride (FeCl3) and clioquinol and to the negative control DMSO.

Row | SMILES | growth rescue
1 | CC1=NCCc2c1[nH]c1ccccc21.O=[N+]([O-])c1cc([N+](=O)[O-])c(O)c([N+](=O)[O-])c1 | inactive: 8.89%
2 | Cc1cc(C)cc(OP(C)(=O)Nc2ccc(C)cc2C)c1 (stereo unspecified) | inactive: 13.4%
3 | CCOC(=O)c1ccc(NP(C)(=O)Oc2cc(C)cc(C)c2)cc1 (stereo unspecified) | inactive: -3.62%
4 | COc1ccccc1OP(C)(=O)Nc1cccc(Br)c1 (stereo unspecified) | inactive: -1.89%
5 | CP(=O)(Nc1cccc(Br)c1)Oc1ccccc1 (stereo unspecified) | inactive: -12.7%
6 | Cc1cc(C)cc(OP(C)(=O)Nc2ccccn2)c1 (stereo unspecified) | inactive: 11.6%
7 | Cc1ccc(C)c(NP(C)(=O)Oc2ccccc2)c1 (stereo unspecified) | inactive: -4.17%
8 | CN(Cc1cccnc1)C(=O)COc1ccc(Cl)c(Cl)c1.O=[N+]([O-])c1cc([N+](=O)[O-])c(O)c([N+](=O)[O-])c1 | inactive: -3.28%
9 | O=[N+]([O-])c1cc([N+](=O)[O-])c(-n2nnc3ccccc32)c([N+](=O)[O-])c1 | inactive: 2.18%
10 | Cc1nc2ccc3ccccc3c2s1.O=[N+]([O-])c1cc([N+](=O)[O-])c(O)c([N+](=O)[O-])c1 | inactive: -8.13%
11 | O=[N+]([O-])c1cc([N+](=O)[O-])c(-c2cnn(-c3ccccc3)c2)c([N+](=O)[O-])c1 | inactive: -92.4%
12 | O=[N+]([O-])c1cc([N+](=O)[O-])c(Nc2nnnn2CCO)c([N+](=O)[O-])c1 | inactive: -7.33%
13 | CC1=C2N=C(C=C3N=C(C(C)=C4[N-][C@@](C)([C@@H]5N=C1[C@](C)(CCC(=O)NC[C@@H](C)OP(=O)([O-])O[C@H]1[C@@H](O)[C@@H](n6cnc7cc(C)c(C)cc76)O[C@@H]1CO)[C@H]5CC(N)=O)[C@@](C)(CC(N)=O)[C@@H]4CCC(N)=O)[C@@](C)(CC(N)=O)[C@@H]3CCC(N)=O)C(C)(C)[C@@H]2CCC(N)=O.[C-]#N.[Co+3] | inactive: -1.33%
14 | CP(=O)(Nc1ccc(SC(F)(F)F)cc1)Oc1ccccc1 (stereo unspecified) | inactive: 14.7%
15 | CCCOc1ccc(NP(C)(=O)Oc2ccc(Cl)cc2)cc1 (stereo unspecified) | inactive: 29.1%
16 | CN1CCCCC1COC(=O)C1(O)c2ccccc2CCc2ccccc21 (stereo unspecified) | inactive: 17.3%
17 | COc1ccccc1OP(C)(=O)Nc1c(C)cccc1C (stereo unspecified) | inactive: 2.88%
18 | COc1ccccc1OP(C)(=O)Nc1ccccc1 (stereo unspecified) | inactive: 4.9%
19 | CP(=O)(Nc1ccccc1Br)Oc1ccccc1 (stereo unspecified) | inactive: 19.5%
20 | CP(=S)(Nn1cnnc1)Oc1ccccc1 (stereo unspecified) | inactive: -17.7%
21 | CCc1ccc(OP(C)(=O)N2CCN(c3ccc([N+](=O)[O-])cc3)CC2)cc1 (stereo unspecified) | inactive: 1.55%
22 | CP(=O)(NC(=O)Nc1ccccc1)Oc1ccccc1 (stereo unspecified) | inactive: -6.72%

Row | SMILES | growth rescue
23 | Cc1cc(C)cc(OP(C)(=O)Nc2ccc(SC(F)(F)F)cc2)c1 (stereo unspecified) | inactive: 13.5%
24 | Cc1cccc(C)c1OP(C)(=O)Nc1ccc(SC(F)(F)F)cc1 (stereo unspecified) | inactive: 13.7%
25 | CP(=O)(Oc1ccccc1)OC(c1ccccc1)C(F)(F)F (stereo unspecified) | inactive: 8.97%
26 | CP(=O)(Nc1ccccn1)Oc1ccc(Cl)cc1 (stereo unspecified) | inactive: 3.32%
27 | CCOP(C)(=S)SCC(=O)NC(C)C(=O)O (stereo unspecified) | inactive: 12.6%
28 | O=[N+]([O-])c1cc([N+](=O)[O-])c(O)c([N+](=O)[O-])c1.c1ccc(Oc2ccncc2)cc1 | inactive: 10.3%
29 | CCOC(=O)c1ccc(NP(C)(=O)Oc2ccc(OC)cc2)cc1 (stereo unspecified) | inactive: 5.08%
30 | CCN(CC)CCCOC(=O)C(O)(c1ccccc1)c1ccccc1 | inactive: 10.3%
31 | COc1ccccc1-c1ccccn1.O=[N+]([O-])c1cc([N+](=O)[O-])c(O)c([N+](=O)[O-])c1 | inactive: -3.82%
32 | CC(C)(C)c1ccc(OP(C)(=O)Nc2ccc(SC(F)(F)F)cc2)cc1 (stereo unspecified) | inactive: 4.18%
33 | Cc1cccc(C)c1OP(C)(N)=O (stereo unspecified) | inactive: 5.48%
34 | O=[N+]([O-])c1ccc2c(c1)C=Nc1ccccc1O2 | inactive: -38.4%
35 | O=[N+]([O-])c1cc([N+](=O)[O-])c(Nc2cccnc2)c([N+](=O)[O-])c1 | inactive: -25%
36 | COc1ccccc1OP(C)(=O)Nc1cc(Cl)ccc1C (stereo unspecified) | inactive: -5.02%
37 | COc1ccc(OP(C)(=O)Nc2cccc(F)c2)cc1 (stereo unspecified) | inactive: 10.2%
38 | Cc1cc(C)cc(OP(C)(N)=O)c1 (stereo unspecified) | inactive: -19.1%
39 | CCOC(=O)c1ccc(NP(C)(=O)Oc2ccccc2)cc1 (stereo unspecified) | inactive: 7.33%
40 | COc1ccccc1OP(C)(=O)Nc1ccc(C)cc1 (stereo unspecified) | inactive: 25.2%
41 | Cc1ccc(NP(C)(=O)Oc2ccccc2)c(C)c1 (stereo unspecified) | inactive: 0.0874%
42 | COc1ccc(OP(C)(=O)Nc2ccccc2Br)cc1 (stereo unspecified) | inactive: -13.9%
43 | COc1ccccc1OP(C)(=O)Nc1ccc(C)c(C)c1 (stereo unspecified) | inactive: 11.7%
44 | Cc1cc(C)cc(OP(C)(=O)Nc2cccc(C(F)(F)F)c2)c1 (stereo unspecified) | inactive: 6.52%

Row | SMILES | growth rescue
45 | CP(=O)(OCCOc1ccccc1)OCCOc1ccccc1 | inactive: 1.54%
46 | CCCCCCCCCCCCCCCC1C[N+](C)(C)CCOP(C)(=O)O1 (stereo unspecified) | inactive: -50.3%
47 | CP(=O)(Nc1ccc(Cl)cc1Cl)Oc1ccccc1 (stereo unspecified) | inactive: 11.3%
48 | CN(C)CCOC(=O)C(O)(c1ccccc1)C1CCCC1 (stereo unspecified) | inactive: -1.21%
49 | COc1ccc(OP(C)(=O)Nc2ccccn2)cc1 (stereo unspecified) | inactive: -21.3%
50 | COc1ccccc1OP(C)(=O)Nc1ccc(Br)cc1 (stereo unspecified) | inactive: 10.5%
51 | CCc1ccc(OP(C)(=O)O)cc1 | inactive: 0.74%
52 | CP(=O)(Nc1ccccn1)Oc1ccccc1 (stereo unspecified) | inactive: -3.31%
53 | COc1ccccc1OP(C)(=O)Nc1ccc(C)cc1C (stereo unspecified) | inactive: 20.8%
54 | O=[N+]([O-])c1cc([N+](=O)[O-])c(Nc2ccccn2)c([N+](=O)[O-])c1 | inactive: -90.4%
55 | Cc1c(NP(C)(=O)Oc2ccc(C(C)C)cc2)c(=O)n(-c2ccccc2)n1C (stereo unspecified) | inactive: 10.8%
56 | CP(=O)(Oc1ccccc1)N1CCOC1=O (stereo unspecified) | inactive: 1.16%
57 | CCc1ccc(OP(C)(=O)Nc2cccnc2)cc1 (stereo unspecified) | inactive: 24.3%
58 | COc1ccccc1OP(C)(=O)Nc1c(C)n(C)n(-c2ccccc2)c1=O (stereo unspecified) | inactive: 4.58%
59 | O=C(OCCCN1CCCC1)C(O)(c1ccccc1)C1CCCCC1 (stereo unspecified) | inactive: 5.81%
60 | CCN(CC)CC(O)COC(=O)C(O)(c1ccccc1)C1CCCCC1 (stereo unspecified) | inactive: -4.28%
61 | CN(C)C(=O)c1c([N+](=O)[O-])cc([N+](=O)[O-])cc1[N+](=O)[O-] | inactive: -13.7%
62 | CC(C)(C)c1ccc(OP(C)(=O)O)cc1 | inactive: 29.1%
63 | COc1ccccc1OP(C)(=O)Nc1ccccc1Br (stereo unspecified) | inactive: 6.74%
64 | CP(=O)(OC12CC3CC(CC(C3)C1)C2)OC12CC3CC(CC(C3)C1)C2 | inactive: 5.1%
65 | CCOC(=O)c1ccc(NP(C)(=O)Oc2ccc(Cl)cc2)cc1 (stereo unspecified) | inactive: -0.442%
66 | Nc1ccc2c(ccc3cccnc32)n1.O=[N+]([O-])c1cc([N+](=O)[O-])c(O)c([N+](=O)[O-])c1 | inactive: -2.35%

Row | SMILES | growth rescue
67 | COc1ccc(NP(C)(=O)Oc2ccccc2OC)cc1 (stereo unspecified) | inactive: -12.1%
68 | CN(C)CCOC(=O)C(O)(c1ccccc1)C1CCCCC1 (stereo unspecified) | inactive: 3.45%
69 | COc1ccc(OP(C)(=O)Nc2cccc(Br)c2)cc1 (stereo unspecified) | inactive: 8.62%
70 | Cc1c(C(c2ccc3c(c2)OCO3)c2c(C)n(C)n(-c3ccccc3)c2=O)c(=O)n(-c2ccccc2)n1C.O=[N+]([O-])c1cc([N+](=O)[O-])c(O)c([N+](=O)[O-])c1 | inactive: -14.6%
71 | Cc1cc(-c2cccc3ccccc23)c(C)cn1.O=[N+]([O-])c1cc([N+](=O)[O-])c(O)c([N+](=O)[O-])c1 | inactive: -11.8%
72 | O=[N+]([O-])c1ccc(OP2(=O)COCCO2)cc1 (stereo unspecified) | inactive: -1.45%
73 | CCOP(C)(=S)SCC(=O)NC(C)(CC)C(=O)O (stereo unspecified) | inactive: 4.01%
74 | CP(=O)(Nc1ccc(SC(F)(F)F)cc1)Oc1ccc(F)cc1 (stereo unspecified) | inactive: 27.6%
75 | O=[N+]([O-])c1cc([N+](=O)[O-])c(C(F)(F)F)c([N+](=O)[O-])c1O | inactive: -13.2%
76 | Cc1ccccc1NP(C)(=O)Nc1ccccc1C | inactive: 12.5%
77 | CP(=O)(Nc1ccc2c(c1)OCCO2)Oc1ccccc1 (stereo unspecified) | inactive: -1.79%
78 | CC(C)c1ccc(OP(C)(=O)Nc2ccc(SC(F)(F)F)cc2)cc1 (stereo unspecified) | inactive: 0.804%
79 | CP(=O)(Nc1ccccc1F)Oc1ccccc1 (stereo unspecified) | inactive: -25.2%
80 | O=C(OCCN1CCN(CCOCc2ccccc2)CC1)C(O)(c1ccccc1)c1ccccc1 | inactive: 1.82%
81 | COc1ccc(OP(C)(=O)Nc2ccc(SC(F)(F)F)cc2)cc1 (stereo unspecified) | inactive: 18.4%
82 | CCOC(=O)c1ccc(NP(C)(=O)Oc2ccc(F)cc2)cc1 (stereo unspecified) | inactive: 10%
83 | CCCCCOc1ccc(NP(C)(=O)Oc2ccc(Cl)cc2Cl)cc1 (stereo unspecified) | inactive: -8.73%
84 | CP(=O)(Nc1ccccc1)Oc1ccc(F)cc1 (stereo unspecified) | inactive: 3.82%
85 | CCN(CC)CCCOC(=O)C(O)(c1ccccc1)C1CCCCC1 (stereo unspecified) | inactive: 9.87%
86 | Cc1c([N+](=O)[O-])cc([N+](=O)[O-])c(Br)c1[N+](=O)[O-] | inactive: -94.5%
